Assays:
[1] = target: Metabotropic glutamate receptor 5 (Homo sapiens, UniProt P41594); test: In vitro potency against human recombinant mGlu5 receptor was determined by [Ca2+] flux assay using glutamate as agonist; assay type: functional
Method in brief: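 Ltk cells stably expressing human recombinant mGlu5; automated assay of cytosolic Ca²⁺ changes by fura-2 fluorescence; IC50 from antagonist response. Mean with a spread value and n in parentheses.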

Chains of the proteins cited; added tags and fusions are not shown.
UniProt P41594, whole entry: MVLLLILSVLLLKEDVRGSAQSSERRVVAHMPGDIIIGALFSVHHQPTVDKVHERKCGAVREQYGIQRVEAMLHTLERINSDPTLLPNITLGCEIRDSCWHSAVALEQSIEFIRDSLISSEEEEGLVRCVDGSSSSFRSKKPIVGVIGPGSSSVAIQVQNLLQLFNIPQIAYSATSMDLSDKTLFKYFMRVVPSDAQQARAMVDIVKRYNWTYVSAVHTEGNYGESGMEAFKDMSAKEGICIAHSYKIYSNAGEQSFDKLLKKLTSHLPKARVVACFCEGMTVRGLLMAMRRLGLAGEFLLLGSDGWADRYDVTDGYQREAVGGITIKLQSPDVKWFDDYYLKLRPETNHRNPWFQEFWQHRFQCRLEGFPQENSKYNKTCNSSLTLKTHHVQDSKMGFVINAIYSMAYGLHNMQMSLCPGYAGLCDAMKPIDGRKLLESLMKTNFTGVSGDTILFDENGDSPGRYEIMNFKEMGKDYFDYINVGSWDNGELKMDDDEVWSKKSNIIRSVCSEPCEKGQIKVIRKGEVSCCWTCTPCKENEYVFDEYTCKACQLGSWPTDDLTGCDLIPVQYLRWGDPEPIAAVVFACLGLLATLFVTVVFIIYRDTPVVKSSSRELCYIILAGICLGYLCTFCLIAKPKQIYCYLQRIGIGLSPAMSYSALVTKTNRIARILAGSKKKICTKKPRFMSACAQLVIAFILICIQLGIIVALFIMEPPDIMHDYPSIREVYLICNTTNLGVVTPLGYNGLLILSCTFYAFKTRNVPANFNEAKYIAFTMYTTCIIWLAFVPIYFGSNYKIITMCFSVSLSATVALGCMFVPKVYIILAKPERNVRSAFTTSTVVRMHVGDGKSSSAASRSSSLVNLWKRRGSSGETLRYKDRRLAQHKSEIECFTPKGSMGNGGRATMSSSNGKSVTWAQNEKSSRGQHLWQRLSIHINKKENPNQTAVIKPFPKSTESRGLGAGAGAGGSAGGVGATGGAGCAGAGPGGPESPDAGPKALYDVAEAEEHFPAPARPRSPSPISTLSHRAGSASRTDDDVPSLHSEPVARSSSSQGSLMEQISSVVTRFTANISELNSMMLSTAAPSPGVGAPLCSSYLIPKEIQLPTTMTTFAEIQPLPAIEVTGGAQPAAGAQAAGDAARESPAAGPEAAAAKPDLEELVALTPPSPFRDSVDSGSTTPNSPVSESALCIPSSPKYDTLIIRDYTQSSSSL
UniProt P31424, whole entry: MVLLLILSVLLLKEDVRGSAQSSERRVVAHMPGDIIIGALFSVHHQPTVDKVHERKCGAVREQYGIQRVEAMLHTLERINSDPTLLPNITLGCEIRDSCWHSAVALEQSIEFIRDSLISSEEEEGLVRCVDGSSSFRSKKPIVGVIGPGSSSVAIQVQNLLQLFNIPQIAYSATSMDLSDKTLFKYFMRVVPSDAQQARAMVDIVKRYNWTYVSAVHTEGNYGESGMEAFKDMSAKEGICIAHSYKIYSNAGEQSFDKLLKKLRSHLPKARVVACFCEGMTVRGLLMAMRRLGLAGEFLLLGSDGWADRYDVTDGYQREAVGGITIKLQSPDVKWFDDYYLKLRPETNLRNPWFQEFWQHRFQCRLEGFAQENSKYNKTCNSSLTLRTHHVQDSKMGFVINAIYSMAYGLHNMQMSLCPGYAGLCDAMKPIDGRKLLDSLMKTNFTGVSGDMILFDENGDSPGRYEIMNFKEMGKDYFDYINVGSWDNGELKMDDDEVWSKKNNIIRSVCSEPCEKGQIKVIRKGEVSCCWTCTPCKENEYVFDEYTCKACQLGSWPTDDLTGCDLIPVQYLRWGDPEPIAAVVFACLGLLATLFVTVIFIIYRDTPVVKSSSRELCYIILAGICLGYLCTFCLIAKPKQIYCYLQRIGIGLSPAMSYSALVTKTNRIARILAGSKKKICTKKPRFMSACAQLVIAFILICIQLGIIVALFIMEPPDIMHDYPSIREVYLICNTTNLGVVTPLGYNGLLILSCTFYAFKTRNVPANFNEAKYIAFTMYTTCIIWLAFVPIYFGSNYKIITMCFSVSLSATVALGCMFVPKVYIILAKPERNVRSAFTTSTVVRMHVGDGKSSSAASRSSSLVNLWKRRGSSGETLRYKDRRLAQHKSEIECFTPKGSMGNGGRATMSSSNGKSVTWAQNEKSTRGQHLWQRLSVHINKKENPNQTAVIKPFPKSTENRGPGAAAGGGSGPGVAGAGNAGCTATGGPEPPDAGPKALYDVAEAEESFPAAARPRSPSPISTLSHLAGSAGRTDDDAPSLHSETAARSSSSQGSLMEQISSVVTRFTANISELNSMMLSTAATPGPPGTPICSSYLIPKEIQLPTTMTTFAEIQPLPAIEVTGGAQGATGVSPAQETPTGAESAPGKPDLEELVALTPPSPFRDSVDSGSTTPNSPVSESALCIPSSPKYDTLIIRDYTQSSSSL

[2] = target: Metabotropic glutamate receptor 5 (Rattus norvegicus, UniProt P31424); test: Displacement by compound of [3H]3-methoxy-5-(pyridin-2-ylethynyl)pyridine from rat cortical membranes; assay type: cell membranes, Membrane
Method in brief: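 Native rat mGlu5 binding: rat cortical membranes, displacement of [³H]-3-methoxy-5-(pyridin-2-ylethynyl)pyridine by test compound; Ki derived.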

IC50 [1] [nM] | Ki [2] [nM] | Compound
0.5 | 2 | Cc1nc(C#Cc2ccc(-c3ccccc3)nc2)cs1
 | 12 | Cc1nc(C#Cc2cccnc2)cs1
41 | 16 | Cc1nc(C#Cc2cccc(-c3ccccc3)c2)cs1
2 | 2 | Cc1nc(C#Cc2ccc(-c3cccnc3)nc2)cs1

— ChEMBL document CHEMBL1137127 (Bioorg Med Chem Lett, 2004)
